We go through one molecule from patent US20240197719A1 (priority 2018, published 2024).

The conditions of the series: human, in vivo.

Regarding `C=C1CC[C@@]2(O)[C@H]3Cc4ccc(O)c5c4[C@@]2(CCN3CC2CC2)[C@H]1O5` [Nalmefene, 17-cyclopropylmethyl-4,5α-epoxy-6-methylenemorphinan-3,14-diol], the AUC entry is reported as “did not alter” and the half-life entry is “nor does it change”. Further, the “dose-normalized Cmax” value (im) is given as “increased dramatically”.
